According to US10961163B2, “Compositions and methods useful for enhancing the microbial conversion of nitrate into ammonium” (The Regents of the University of California, priority 2016, dated 2021):

Test system: microbial enrichment cultures
Assay: Inhibitory potency (IC50) of inorganic compounds against growth and ammonium production, microbial enrichment with yeast extract

With Sodium bromate the “NH4^+ IC50/growth IC50 ratio” value was 53.7262.
